Experiments:
[1] = molecular target: LRRK2 (Homo sapiens, UniProt Q5S007); experiment: NanoBRET assay follow-up; type: cell-based; conditions: singlicate (n = 1) dose–response
[2] = molecular target: TBK1 (NLuc-TBK1) (Homo sapiens, UniProt Q9UHD2); experiment: NanoBRET cellular target engagement assay; type: cell-based
How it was run: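 HEK293 cells were grown in DMEM with 10% FBS at 37 °C under 5% CO2, passaged every 72 h with trypsin and kept below confluency. Cells expressed NanoLuc fusions (DRAK1-NLuc or NLuc-TBK1). Dose–response was run per the manufacturer's protocol, with 0.5 μM tracer K-9 for DRAK1 and 0.5 μM tracer K-5 for TBK1. SEM was reported where assays were repeated.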

Protein sequences, listed by entry. Tags and fused reporters are not part of them. Lines headed by an entry give the natural chain unless they say otherwise; changes in a name come on top.
UniProt Q5S007: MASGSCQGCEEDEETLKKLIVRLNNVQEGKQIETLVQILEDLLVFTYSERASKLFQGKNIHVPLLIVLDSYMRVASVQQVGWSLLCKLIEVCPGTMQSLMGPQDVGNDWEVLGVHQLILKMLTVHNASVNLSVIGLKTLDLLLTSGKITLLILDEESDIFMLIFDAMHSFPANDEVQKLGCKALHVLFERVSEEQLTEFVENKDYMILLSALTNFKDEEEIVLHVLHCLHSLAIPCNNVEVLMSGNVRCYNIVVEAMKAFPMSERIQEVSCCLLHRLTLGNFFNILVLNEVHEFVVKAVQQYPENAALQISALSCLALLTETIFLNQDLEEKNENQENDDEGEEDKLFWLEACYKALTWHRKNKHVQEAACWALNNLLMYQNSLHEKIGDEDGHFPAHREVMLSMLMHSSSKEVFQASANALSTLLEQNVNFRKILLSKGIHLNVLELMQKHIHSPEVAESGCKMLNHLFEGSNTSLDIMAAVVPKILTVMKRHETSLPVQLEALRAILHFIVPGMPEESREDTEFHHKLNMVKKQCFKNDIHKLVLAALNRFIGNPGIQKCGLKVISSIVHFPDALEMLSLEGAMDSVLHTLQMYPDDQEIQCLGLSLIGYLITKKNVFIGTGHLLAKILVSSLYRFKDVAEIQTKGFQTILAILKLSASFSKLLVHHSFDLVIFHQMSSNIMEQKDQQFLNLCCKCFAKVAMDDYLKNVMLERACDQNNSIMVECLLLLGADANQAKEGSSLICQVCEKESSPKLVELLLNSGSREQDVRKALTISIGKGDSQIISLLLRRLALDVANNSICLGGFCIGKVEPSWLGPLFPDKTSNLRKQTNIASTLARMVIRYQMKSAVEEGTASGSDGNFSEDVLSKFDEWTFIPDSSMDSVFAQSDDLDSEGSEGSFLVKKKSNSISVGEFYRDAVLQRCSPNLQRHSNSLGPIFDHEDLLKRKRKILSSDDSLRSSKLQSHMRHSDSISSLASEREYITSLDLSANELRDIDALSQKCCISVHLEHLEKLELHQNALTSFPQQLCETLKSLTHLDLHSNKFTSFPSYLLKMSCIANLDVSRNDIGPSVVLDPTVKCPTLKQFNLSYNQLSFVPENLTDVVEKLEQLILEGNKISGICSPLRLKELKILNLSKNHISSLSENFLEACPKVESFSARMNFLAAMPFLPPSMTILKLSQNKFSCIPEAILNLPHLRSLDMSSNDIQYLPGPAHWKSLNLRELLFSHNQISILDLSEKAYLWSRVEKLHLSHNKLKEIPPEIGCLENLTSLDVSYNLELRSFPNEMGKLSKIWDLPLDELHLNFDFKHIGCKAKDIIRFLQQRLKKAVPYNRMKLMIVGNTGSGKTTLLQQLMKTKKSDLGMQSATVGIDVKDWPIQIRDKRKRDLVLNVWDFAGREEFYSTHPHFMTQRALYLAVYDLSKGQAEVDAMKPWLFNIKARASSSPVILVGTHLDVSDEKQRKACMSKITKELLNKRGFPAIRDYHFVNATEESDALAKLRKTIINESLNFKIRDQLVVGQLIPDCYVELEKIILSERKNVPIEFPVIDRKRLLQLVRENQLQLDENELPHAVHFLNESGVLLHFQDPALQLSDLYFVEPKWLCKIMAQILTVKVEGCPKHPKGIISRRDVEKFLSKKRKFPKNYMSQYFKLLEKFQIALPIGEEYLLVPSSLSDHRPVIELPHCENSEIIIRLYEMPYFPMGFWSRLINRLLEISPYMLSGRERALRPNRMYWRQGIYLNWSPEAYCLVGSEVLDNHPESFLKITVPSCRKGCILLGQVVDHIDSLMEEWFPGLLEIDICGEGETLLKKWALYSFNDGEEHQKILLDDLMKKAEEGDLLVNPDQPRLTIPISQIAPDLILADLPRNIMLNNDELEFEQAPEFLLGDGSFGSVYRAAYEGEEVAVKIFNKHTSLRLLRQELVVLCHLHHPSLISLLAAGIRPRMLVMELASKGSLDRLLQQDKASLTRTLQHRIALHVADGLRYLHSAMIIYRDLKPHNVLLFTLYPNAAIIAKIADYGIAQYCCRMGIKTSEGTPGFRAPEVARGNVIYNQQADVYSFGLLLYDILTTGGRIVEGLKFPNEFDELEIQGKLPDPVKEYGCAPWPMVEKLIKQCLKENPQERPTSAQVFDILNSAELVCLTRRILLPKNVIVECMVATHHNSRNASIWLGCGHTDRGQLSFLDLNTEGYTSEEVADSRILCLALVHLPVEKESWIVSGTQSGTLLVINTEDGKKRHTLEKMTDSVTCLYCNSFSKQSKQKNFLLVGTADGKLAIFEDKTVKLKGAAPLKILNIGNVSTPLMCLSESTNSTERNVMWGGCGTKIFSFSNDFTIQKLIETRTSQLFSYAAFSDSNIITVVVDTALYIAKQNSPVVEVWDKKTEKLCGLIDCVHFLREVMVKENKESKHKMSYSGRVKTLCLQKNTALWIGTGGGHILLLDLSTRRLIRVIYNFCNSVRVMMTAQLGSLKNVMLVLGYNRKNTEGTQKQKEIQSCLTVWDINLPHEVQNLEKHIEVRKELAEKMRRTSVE
UniProt Q9UHD2: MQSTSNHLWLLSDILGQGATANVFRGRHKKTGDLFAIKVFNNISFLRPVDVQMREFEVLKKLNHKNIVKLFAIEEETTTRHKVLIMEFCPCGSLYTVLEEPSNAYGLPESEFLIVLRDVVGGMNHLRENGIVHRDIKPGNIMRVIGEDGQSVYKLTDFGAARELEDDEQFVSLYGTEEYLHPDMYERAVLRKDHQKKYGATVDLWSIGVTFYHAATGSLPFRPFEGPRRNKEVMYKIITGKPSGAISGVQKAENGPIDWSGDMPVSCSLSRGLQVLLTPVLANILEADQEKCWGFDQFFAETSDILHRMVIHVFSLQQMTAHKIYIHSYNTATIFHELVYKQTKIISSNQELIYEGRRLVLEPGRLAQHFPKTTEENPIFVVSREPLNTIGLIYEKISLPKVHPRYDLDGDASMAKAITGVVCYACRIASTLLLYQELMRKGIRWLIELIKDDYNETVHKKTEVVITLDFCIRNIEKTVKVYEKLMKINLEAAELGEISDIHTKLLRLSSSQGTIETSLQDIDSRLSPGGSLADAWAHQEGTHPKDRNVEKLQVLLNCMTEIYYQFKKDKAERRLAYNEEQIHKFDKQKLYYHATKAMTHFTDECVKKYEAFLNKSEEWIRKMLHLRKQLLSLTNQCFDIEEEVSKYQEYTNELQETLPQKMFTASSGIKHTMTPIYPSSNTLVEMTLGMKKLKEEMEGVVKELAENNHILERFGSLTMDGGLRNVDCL

LRRK2 NanoBRET IC50 [1]: did not have any activity | fold loss in potency, enzymatic versus NanoBRET, TBK1 [2]: < 10 fold
Compound: Cc1nn(CC(F)(F)F)cc1Nc1ncc(Br)c(NCc2ccc(S(N)(=O)=O)cc2)n1 [GSK8612, 4-(((5-Bromo-2-((3-methyl-1-(2,2,2-trifluoroethyl)-1H-pyrazol-4-yl)amino)pyrimidin-4-yl)-amino)methyl)benzenesulfonamide, reference compound]
